Results taken from patent US6589992B2, “Inhibiting collagen-induced platelet aggregation” (Parker Hughes Institute, priority 1999, dated 2003).

How the values were obtained:
[1] = Pharmacokinetics in mice (HPLC plasma levels); settings: single i.v. bolus 25 mg/kg or i.p. bolus 50 mg/kg
Experimental: All collected blood samples were heparinized and centrifuged at 7,000xg for 5 minutes in a microcentrifuge to obtain plasma. The plasma samples were stored at −20° C. until analysis.
The analytical column was equilibrated and eluted under isocratic conditions utilizing a flow rate of 1.0 mL/min at ambient temperature. The wavelength of detection was set at 294 nm. Peak width, response time, and slit were set at >0.03 min, 0.55 sec, and […], respectively. […] Following centrifugation at 300xg for 5 minutes, the supernatant was used for HPLC analysis using a system comprised of a Hewlett Packard (HP) series 1100 instrument equipped with an automated electronic degasser, a quaternary pump, an autosampler, an automatic thermostatic column compartment, diode array detector and a computer with a Chemstation software program for data analysis (Chen and Uckun, 1999; Malaviya et al., 2000). All extraction procedures were carried out at room temperature.
The unweighed linear regression analysis of the standard curves was performed by using the CA-Cricket Graph III computer program, Version 1.0 (Computer Association, Inc., Islandia, N.Y.). […] Pharmacokinetic modeling and pharmacokinetic parameter estimations were carried out using the pharmacokinetics software, WinNonlin Program, Professional version 3.0 (Pharsight Inc., Mountain view, Calif.) (Chen and Uckun, 1999; Malaviya et al. 2000; Uckun et al., 1999).
The elimination half-life was estimated by linear regression analysis of the terminal phase of the plasma concentration time profile. The area under the concentration time curve (AUC) was calculated by the linear trapezoidal rule between the first (0 hours) and last sampling time plus C/k, where C is the concentration at the last sampling time and k is the elimination rate constant. The systemic clearance (CL) was determined by dividing the does by the AUC (Chen and Uckun, 199; Malaviya et al., 2000; Uckun et al., 1999).
A one-compartment, first order pharmacokinetic model was fit into the pharmacokinetic data. […]

mice = test: Toxicity of LFM-A13 in mice; settings: mouse, in vivo
Excerpt: For histopathologic studies, tissues were fixed in 10% neutral buffered formalin, dehydrated, and embedded in paraffin by routine methods.

## C/C(O)=C(\C#N)C(=O)Nc1cc(Br)ccc1Br [LFM-A13, α-cyano-β-hydroxy-β-methyl-N-(2,5-dibromophenyl)-propenamide]
[1]
  plasma concentration achieved: > 10 µM
  time plasma concentration >10 μM maintained: > 2 h
  time to achieve plasma concentration >10 μM: ≤ 3 min
mice
  toxicity, systemic administration: not toxic
